The chains behind the UniProt entries cited, without tags or fusion partners.
UniProt Q13547, whole entry: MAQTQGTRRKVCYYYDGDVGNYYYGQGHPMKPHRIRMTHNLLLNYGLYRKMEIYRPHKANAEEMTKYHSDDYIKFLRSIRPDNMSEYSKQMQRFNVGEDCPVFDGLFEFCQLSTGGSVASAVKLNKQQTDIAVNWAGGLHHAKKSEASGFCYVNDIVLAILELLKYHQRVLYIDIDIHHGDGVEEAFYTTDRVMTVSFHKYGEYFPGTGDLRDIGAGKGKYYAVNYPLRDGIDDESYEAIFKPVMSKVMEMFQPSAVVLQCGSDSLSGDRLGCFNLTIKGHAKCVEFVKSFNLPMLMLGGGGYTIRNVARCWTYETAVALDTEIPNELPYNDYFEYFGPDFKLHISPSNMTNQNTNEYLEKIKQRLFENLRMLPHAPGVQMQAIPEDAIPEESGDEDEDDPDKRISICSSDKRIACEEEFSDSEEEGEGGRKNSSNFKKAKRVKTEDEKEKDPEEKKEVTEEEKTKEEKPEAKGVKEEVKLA

In patent publication US9988343B2, “Inhibitors of histone deacetylase” (Dana-Farber Cancer Institute, Inc., priority 2013, dated 2018):

Biological target: HDAC1 (Homo sapiens, UniProt Q13547)
Assay: HDAC1 inhibitory activity (IC50)
Format: biochemical
Conditions: Table 2

How did the pIC50 turn out when Nc1ccccc1NC(=O)c1ccccn1 [Compound 3] was run?
The pIC50 was 5.82.

pIC50: −log10 of the molar value.
